Assay results from ChEMBL document CHEMBL5523761 (J Med Chem, 2024).

Amino acid sequences for entries named in this document (tags omitted).
UniProt P14416, whole entry: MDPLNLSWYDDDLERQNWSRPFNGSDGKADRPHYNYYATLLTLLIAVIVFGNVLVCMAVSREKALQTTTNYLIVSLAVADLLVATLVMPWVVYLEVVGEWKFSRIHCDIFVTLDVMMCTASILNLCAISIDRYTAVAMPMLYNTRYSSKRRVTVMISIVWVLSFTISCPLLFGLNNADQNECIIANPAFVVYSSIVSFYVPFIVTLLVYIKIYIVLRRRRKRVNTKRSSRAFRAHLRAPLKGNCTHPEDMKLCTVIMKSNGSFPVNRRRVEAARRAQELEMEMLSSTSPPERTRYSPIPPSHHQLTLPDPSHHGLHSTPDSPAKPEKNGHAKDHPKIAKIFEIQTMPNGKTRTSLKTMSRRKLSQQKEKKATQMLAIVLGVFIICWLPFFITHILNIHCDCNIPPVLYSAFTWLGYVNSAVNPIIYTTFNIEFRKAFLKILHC

Molecular target: D(2) dopamine receptor (Homo sapiens, UniProt P14416)

## CCCN1CCc2cccc3c2[C@H]1Cc1cccc(O)c1-3
  Ki: 28.5 nM
